Earlier results on 1 compound are cited in patent US11111252B2, “Pyrimidine compounds and pyrimido indole compounds and methods of use” (Duquesne University of the Holy Spirit, priority 2014, dated 2021).

By UniProt entry, the sequences of proteins in these tests, tags left out. Residues count along the entry.
UniProt P09619, 33-1106, species assumed: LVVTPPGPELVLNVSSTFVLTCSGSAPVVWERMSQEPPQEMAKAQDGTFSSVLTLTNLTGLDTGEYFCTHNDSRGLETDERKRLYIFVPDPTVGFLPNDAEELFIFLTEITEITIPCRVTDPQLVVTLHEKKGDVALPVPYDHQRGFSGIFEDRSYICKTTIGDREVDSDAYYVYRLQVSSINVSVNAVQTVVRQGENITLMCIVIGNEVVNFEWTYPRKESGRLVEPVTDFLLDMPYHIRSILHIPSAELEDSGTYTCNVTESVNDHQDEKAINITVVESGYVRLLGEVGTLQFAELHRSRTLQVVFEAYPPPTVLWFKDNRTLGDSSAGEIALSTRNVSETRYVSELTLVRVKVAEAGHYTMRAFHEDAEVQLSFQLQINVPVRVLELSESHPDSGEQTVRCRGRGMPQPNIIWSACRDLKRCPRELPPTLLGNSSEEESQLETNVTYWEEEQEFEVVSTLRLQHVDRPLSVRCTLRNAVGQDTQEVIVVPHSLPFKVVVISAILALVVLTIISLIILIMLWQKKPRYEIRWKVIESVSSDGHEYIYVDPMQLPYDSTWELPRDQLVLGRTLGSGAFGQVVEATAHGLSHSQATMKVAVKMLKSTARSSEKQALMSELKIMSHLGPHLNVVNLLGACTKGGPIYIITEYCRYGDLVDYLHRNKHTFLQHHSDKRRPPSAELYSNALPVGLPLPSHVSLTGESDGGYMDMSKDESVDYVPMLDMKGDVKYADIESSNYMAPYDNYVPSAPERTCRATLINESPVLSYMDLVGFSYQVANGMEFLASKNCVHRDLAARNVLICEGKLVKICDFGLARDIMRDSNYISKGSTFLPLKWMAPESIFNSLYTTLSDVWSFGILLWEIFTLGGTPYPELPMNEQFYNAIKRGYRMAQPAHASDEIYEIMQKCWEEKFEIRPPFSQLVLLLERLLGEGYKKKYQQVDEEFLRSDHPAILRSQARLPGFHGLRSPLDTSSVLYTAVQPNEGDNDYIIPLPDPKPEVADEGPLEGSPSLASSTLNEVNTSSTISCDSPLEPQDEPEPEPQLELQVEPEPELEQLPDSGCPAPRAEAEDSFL

As a reminder, the IC50 is the concentration that inhibits the measured activity by half.

The data set deals with PDGFR-β (Homo sapiens (Human), UniProt P09619). Particulars: Table 9; read-out: PDGFR-β Kinase Inhibition IC50; cited from earlier work.

Take `CN(C)c1ccc(/C=C2/C(=O)Nc3ccccc32)cc1` [DMBI]: the IC50 is 3.75 µM.
